Structures are written as SMILES.

The record followed here is patent US20140336159A1, “METHODS FOR TREATING AND DIAGNOSING RESPIRATORY TRACT INFECTIONS” (PULMATRIX, INC., priority 2011, published 2014).

In the test the test system is LPS stimulated peritoneal macrophages. The conditions noted are these: compared to untreated (0) cells.

In the case of `[Ca+2].[Cl-].[Cl-]` [calcium chloride], the “gene expression of IP-10, ENA78, GM-CSF and MIP-2” value is recorded as “significantly reduced”.
